# Measurements published in BindingDB's records for doi:10.1002/1098-2396(20001215)38:4 (University of North Texas, 2000).
# Amino acid sequences for entries named in this document (tags omitted).
# UniProt P61169, whole entry: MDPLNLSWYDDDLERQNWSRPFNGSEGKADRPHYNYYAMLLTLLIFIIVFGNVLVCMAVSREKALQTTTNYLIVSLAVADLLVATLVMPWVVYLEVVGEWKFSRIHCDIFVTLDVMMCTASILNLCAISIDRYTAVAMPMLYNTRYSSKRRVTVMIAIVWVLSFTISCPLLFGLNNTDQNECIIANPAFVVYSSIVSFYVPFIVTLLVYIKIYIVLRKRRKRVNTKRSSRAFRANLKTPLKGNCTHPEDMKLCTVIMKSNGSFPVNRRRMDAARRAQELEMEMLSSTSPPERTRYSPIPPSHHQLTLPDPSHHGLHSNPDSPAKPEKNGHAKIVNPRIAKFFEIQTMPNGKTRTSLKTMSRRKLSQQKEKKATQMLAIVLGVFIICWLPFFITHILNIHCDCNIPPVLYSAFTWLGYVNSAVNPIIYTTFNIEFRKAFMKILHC
# Molecular target: D(2) dopamine receptor (Rattus norvegicus, UniProt P61169)
structure (smiles),measurement,value
OCCN1CCN(CC/C=C2/c3ccccc3Sc3ccc(C(F)(F)F)cc32)CC1 [Fluphenthixol],Ki,0.25 nM
